For assay [1], the system named is acyl CoA retinol transferase (ARAT). The assay is described as follows: in vitro Microsomal Assay of retinol esterification, ARAT catalyzed (retinyl palmitate). The format is biochemical, bovine. As to conditions: solvent blank = 100% ester formation.
Assay [2] deals with LRAT and ARAT catalyzed retinol esterification. The assay can be described thus: in vitro Microsomal Assay, retinol esterification overall (statements in words). The format is biochemical, bovine.

oleyl hydroxyethyl imidazoline: the “% INHIBITION, ARAT” value is recorded as 14% in assay [1] (10 μM test compound) and 90% in assay [1] (100 μM test compound). The “retinol esterification inhibition (in words)” value in assay [2] is on record as “potent retinol esterification inhibitors”.

These data come from patent US6440434B1, “Skin care composition” (Conopco, Inc., priority 1999, dated 2002).
